# According to patent US20020039746A1, “Methods for identifying peripheral benzodiazepine receptor binding agents” (priority 2000, published 2002):
# Protein sequences, listed by entry. Tags and fused reporters are not part of them.
# UniProt P30536, whole entry: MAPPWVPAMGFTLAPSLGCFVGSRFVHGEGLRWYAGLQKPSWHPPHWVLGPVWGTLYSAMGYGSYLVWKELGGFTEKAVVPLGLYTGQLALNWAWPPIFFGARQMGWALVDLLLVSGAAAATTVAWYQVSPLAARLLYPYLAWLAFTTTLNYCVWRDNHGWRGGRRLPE
# Where “and” joins values, the source holds several entries; their conditions need not be identical. Equal entries are not always repeated.
# Key:
# [1] = biological target: T1, peripheral benzodiazepine receptor (PBR, PBzR) (Homo sapiens, UniProt P30536); assay: [3H]PK-11195 saturation binding to cell membranes
# T1 construct: expressed in transfected cells; membranes
# [2] = biological target: T2, PBzR (Homo sapiens, UniProt P30536); assay: displacement of [3H]PK-11195 binding to the S11 PBzR overexpressing clone
# T2 construct: expressed in transfected cells; host or cells: S11, clonal SH-SY5Y-derived stably transfected PBzR-overexpressing line
# Protocol: Additional experiments were performed to further characterize the binding of ligand to PBzR.
# The S11 cell line was used as a source of PBzR.
smiles,measurement,setting,value
"CCC(C)N(C)C(=O)c1cc2ccccc2c(-c2ccccc2Cl)n1 (stereo not drawn) [PK-11195, 1-(2-chlorophenyl)-N-methyl-N-(1-methylpropyl)-3-isoquinolinecarboxamide]",Kd (nM),[1]; Jurkat Vector,Not detected
same,Kd,"[1]; Kd (nM), S11",5.3 nM
same,Kd,"[1]; Kd, Jurkat cells stably expressing PBR (Jurkat PBzR)",~3 nM and 4.6 nM
same,Kd,"[1]; Kd, native SY5Y cells, tritiated PK-11195 saturation binding",6.9 nM
same,Kd,"[1]; Kd, stably PBR-transfected SY5Y cells",3.8 nM
same,IC50,[2],5.36 nM
